Among the data in patent US20090304746A1 are IC50 values, retold here.

For the experiment, the target named is HLA-B*5401 (Human). Kind of experiment: competition with 125I-labelled probe peptide, purified HLA, gel filtration. Particulars: remark: other sources report otherwise. For orientation: In gel filtration, larger molecules generally elute earlier.

B1: peptide 15.0219 (peptide)
peptide: APLGGAARAL
modifications: not checked
Regarding B1, the IC50 – broadly, the midpoint of a concentration-inhibition curve – amounted to 12.5 µM.
